Results from patent publication US20220401391A1, “METHODS AND COMPOSITIONS FOR TREATING PAIN” (Apkarian Technologies LLC, priority 2019, published 2022).

Assay: Adverse events and safety in the clinical trial
[1] = participants who received at least one dose

**Q.** With placebo+naproxen [PLC+NPX] as the substance, how does the “Participants reporting clinical adverse events (number)” value [1] read?
**A.** Its value is 17.

**Q.** What about the “Participants reporting clinical adverse events (percent)” value [1] of the same substance?
**A.** The value was 56.7%.

**Q.** And the “Safety / tolerability in words” value (three months of treatment)?
**A.** The value was “unperturbed vital signs and acceptable adverse-event profiles”.
